{"source": "paper PMC6190829", "about": "(Journal of medicinal chemistry, 2018)", "tested_on": "HaCaT cells", "assay": "Immunoblot of NRF2, NQO1, GCLM protein levels", "type": "cell-based, human", "details": "10 μM"}
{"molecule": "COc1ccc(S(=O)(=O)N(CC(=O)O)c2ccc(N(CC(=O)O)S(=O)(=O)c3ccc(OC)cc3)c3ccccc23)cc1", "note": "[Compound 6a]", "values": [{"measurement": "NQO1 protein level", "setting": "6 h, vs DMSO", "value": "modest increase"}, {"measurement": "NRF2 protein level", "setting": "6 h, vs DMSO", "value": "modest increase"}, {"measurement": "GCLM protein level", "setting": "24 h, vs vehicle", "value": "significantly higher"}, {"measurement": "NQO1 protein level", "setting": "24 h, vs vehicle", "value": "Increased"}, {"measurement": "NRF2 protein level", "setting": "24 h, vs vehicle", "value": "Increased"}]}
